In patent publication US9096596B2 (Janssen Pharmaceutica NV, priority 2013, dated 2015):
Read-outs that look alike come from different tables or passages of the source.

The chains behind the UniProt entries cited, without tags or fusion partners. Where a name states a change or a piece, a line headed by the entry shows the natural chain unless it says otherwise.
UniProt Q99572: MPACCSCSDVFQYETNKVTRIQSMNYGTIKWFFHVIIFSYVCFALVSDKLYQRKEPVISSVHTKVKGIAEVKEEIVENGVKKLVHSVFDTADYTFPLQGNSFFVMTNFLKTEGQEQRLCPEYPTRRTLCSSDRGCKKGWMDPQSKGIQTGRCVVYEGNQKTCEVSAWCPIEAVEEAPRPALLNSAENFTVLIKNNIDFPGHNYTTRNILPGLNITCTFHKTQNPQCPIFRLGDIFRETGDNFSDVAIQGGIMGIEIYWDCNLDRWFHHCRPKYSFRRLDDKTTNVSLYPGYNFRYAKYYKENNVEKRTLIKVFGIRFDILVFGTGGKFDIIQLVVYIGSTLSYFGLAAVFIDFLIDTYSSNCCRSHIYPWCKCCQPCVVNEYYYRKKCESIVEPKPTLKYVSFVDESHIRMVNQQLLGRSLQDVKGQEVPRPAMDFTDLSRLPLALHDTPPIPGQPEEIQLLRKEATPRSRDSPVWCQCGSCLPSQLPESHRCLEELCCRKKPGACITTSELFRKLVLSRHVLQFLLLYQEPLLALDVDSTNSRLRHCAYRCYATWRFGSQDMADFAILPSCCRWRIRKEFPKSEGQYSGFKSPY
UniProt Q64663: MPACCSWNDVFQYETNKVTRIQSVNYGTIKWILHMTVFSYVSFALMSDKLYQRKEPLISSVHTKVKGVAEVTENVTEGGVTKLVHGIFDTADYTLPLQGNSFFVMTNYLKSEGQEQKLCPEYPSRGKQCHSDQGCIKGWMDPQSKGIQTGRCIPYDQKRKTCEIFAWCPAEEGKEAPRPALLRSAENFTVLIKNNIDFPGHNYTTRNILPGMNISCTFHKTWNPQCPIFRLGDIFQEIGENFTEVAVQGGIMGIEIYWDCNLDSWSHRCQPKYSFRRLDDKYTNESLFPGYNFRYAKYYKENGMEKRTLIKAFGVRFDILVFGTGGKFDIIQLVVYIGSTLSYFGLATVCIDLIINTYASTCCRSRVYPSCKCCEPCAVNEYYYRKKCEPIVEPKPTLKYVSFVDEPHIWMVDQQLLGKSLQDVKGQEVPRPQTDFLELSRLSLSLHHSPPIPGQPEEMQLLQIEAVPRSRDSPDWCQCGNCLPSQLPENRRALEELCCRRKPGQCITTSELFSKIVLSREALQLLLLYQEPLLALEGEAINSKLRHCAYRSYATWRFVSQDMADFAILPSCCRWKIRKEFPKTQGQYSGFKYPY

Tests used:
P2X7 [1] = molecular target: T1, P2X7 (Homo sapiens (Human), UniProt Q99572); assay: Radioligand binding, human P2X7-1321N1 cell membranes, tracer tritiated A-804598
Protocol: human or rat P2X7-1321 N1 cells were collected and frozen @ −80° C. On the day of the experiment, cell membrane preparations were made according to standard published methods. The total assay volume was 100 μl:10 μl compound (10×)+(b) 40 μl tracer (2.5×)+50 μl membrane (2×). The tracer used for the assay was tritiated A-804598. The compound can be prepared as described in the literature. […] The assay was terminated by filtration (GF/B filters pre-soaked with 0.3% PEI) and washed with washing buffer (Tris-HCl 50 mM). The IC50 generated in the binding assay was corrected for tracer concentration and affinity of the tracer to derive at the affinity (Ki) of the test compounds.

P2X7 [2] = molecular target: T1, P2X7; assay: Ca2+ flux (FLIPR) in 1321N1 cells expressing recombinant human P2X7 channel; assay type: cell-based; conditions: 250 μM BzATP, Calcium-4 dye
Protocol: (§1) 1321N1 cells expressing the recombinant human, rat or mouse P2X7 channel was cultured in HyQ DME/(HyClone/Dulbecco's Modified Eagle Medium) high glucose supplemented with 10% Fetal Bovine Serum (FBS) and appropriate selection marker. Cells were seeded at a density of 25000 cells/well (96-well clear bottom black walled plates) in 100 μl volume/well. On the day of the experiment, cell plates were washed with assay buffer, containing (in mM): 130 NaCl, 2 KCl, 1 CaCl2, 1 MgCl2, 10 HEPES, 5 glucose; pH 7.40 and 300 mOs. After the wash, cells were loaded with the Calcium-4 dye (Molecular Device) and incubated in the dark for 60 minutes. Test compounds were prepared at 250× the test concentration in neat DMSO. Intermediate 96-well compound plates were prepared by transferring 1.2 μL of the compound into 300 μL of assay buffer. A further 3× dilution occurred when transferring 50 μL/well of the compound plate to 100 μL/well in the cell plate. Cells were incubated with test compounds and dye for 30 minutes. Calcium dye fluorescence was monitored in FLIPR as the cells were challenged by adding 50 μL/well of BzATP (final concentration is 250 μM BzATP (human and rat) or 600 μM (mouse)). The fluorescence change was measured 180 seconds after adding the agonist.

rat P2X7 = rat P2X7 (Rattus norvegicus (Rat), UniProt Q64663); assay: Ca2+ flux (FLIPR) in 1321N1 cells expressing recombinant rat P2X7 channel; assay type: cell-based; conditions: 250 μM BzATP, Calcium-4 dye
Protocol: as §1

[3] = human P2X7-1321N1 membranes, 1 hour at 4° C., IC50 corrected for tracer concentration and affinity

| SMILES | IC50 (P2X7 [2]) | IC50 (rat P2X7) | other results |
| --- | --- | --- | --- |
| Cc1nc2c(c(-c3ccn[nH]3)n1)C[C@@H](C)N(C(=O)c1ccc(F)c(C(F)(F)F)c1Cl)C2 (single isomer, unassigned) [Example 66, (R*)-(2-chloro-4-fluoro-3-(trifluoromethyl)phenyl)(2,6-dimethyl-4-(1H-pyrazol-5-yl)-5,6-dihydropyrido[3,4-d]pyrimidin-7(8H)-yl)methanone] |  | 10 nM |  |
| O=C(c1cccc(C(F)(F)F)c1Cl)N1CCc2c(nc(C(F)(F)F)nc2-c2ccn[nH]2)C1 [Example 60, (4-(1H-pyrazol-5-yl)-2-(trifluoromethyl)-5,6-dihydropyrido[3,4-d]pyrimidin-7(8H)-yl)(2-chloro-3-(trifluoromethyl)phenyl)methanone] |  | 268 nM |  |
| O=C(c1cccc(C(F)(F)F)c1Cl)N1CCc2c(ncnc2-c2ccc[nH]2)C1 [Example 42, 7-{[2-Chloro-3-(trifluoromethyl)phenyl]carbonyl}-4-(1H-pyrrol-2-yl)-5,6,7,8-tetrahydropyrido[3,4-d]pyrimidine] |  | 2510 nM |  |
| Cc1nc2c(c(-c3ccn[nH]3)n1)CC(C)N(C(=O)c1ccc(F)cc1C)C2 (stereo not drawn) [Example 133, (2,6-dimethyl-4-(1H-pyrazol-5-yl)-5,6-dihydropyrido[3,4-d]pyrimidin-7(8H)-yl)(4-fluoro-2-methylphenyl)methanone] |  | 2220 nM |  |
| C[C@@H]1c2ncnc(-c3ccn[nH]3)c2CCN1C(=O)c1ccc(F)c(Cl)c1Cl (single isomer, unassigned) [Example 119, (R*)-(2,3-dichloro-4-fluorophenyl)(8-methyl-4-(1H-pyrazol-5-yl)-5,6-dihydropyrido[3,4-d]pyrimidin-7(8H)-yl)methanone] |  |  | Ki (P2X7 [1]): 12.6 nM |
| Nc1nc2c(c(-c3ccccc3)n1)CCN(C(=O)c1cccc(Cl)c1Cl)C2 [Example 29, 7-[(2,3-Dichlorophenyl)carbonyl]-4-phenyl-5,6,7,8-tetrahydropyrido[3,4-d]pyrimidin-2-amine] |  | 1970 nM |  |
| Cc1nc2c(c(-c3ccnn3C)n1)CC(C)N(C(=O)c1cccc(C(F)(F)F)c1Cl)C2 (stereo not drawn) [Example 73, (2-chloro-3-(trifluoromethyl)phenyl)(2,6-dimethyl-4-(1-methyl-1H-pyrazol-5-yl)-5,6-dihydropyrido[3,4-d]pyrimidin-7(8H)-yl)methanone] | 96.6 nM |  | Ki (P2X7 [1]; [3]): 126 nM |
| O=C(c1ccc(F)c(Cl)c1Cl)N1CCc2c(ncnc2-c2cccc(F)n2)C1 [Example 129, (2,3-dichloro-4-fluorophenyl)(4-(6-fluoropyridin-2-yl)-5,6-dihydropyrido[3,4-d]pyrimidin-7(8H)-yl)methanone] | 106 nM | 1060 nM |  |
| Cc1nc2c(c(-c3ccn[nH]3)n1)C[C@H](C)N(C(=O)c1cccc(C(F)(F)F)c1F)C2 (single isomer, unassigned) [Example 76, (S*)-(2,6-dimethyl-4-(1H-pyrazol-5-yl)-5,6-dihydropyrido[3,4-d]pyrimidin-7(8H)-yl)(2-fluoro-3-(trifluoromethyl)phenyl)methanone] | 406 nM | 126 nM |  |
| O=C(c1cccc(C(F)(F)F)c1Cl)N1CCc2c(ncnc2-n2nccn2)C1 [Example 108, 7-{[2-Chloro-3-(trifluoromethyl)phenyl]carbonyl}-4-(2H-1,2,3-triazol-2-yl)-5,6,7,8-tetrahydropyrido[3,4-d]pyrimidine] |  |  | Ki (P2X7 [1]; [3]): 26.6 nM |
| Cc1nc2c(c(-c3ccc(F)cc3)n1)CCN(C(=O)c1cccc(Cl)c1Cl)C2 [Example 28, 7-[(2,3-Dichlorophenyl)carbonyl]-4-(4-fluorophenyl)-2-methyl-5,6,7,8-tetrahydropyrido[3,4-d]pyrimidine] | 452 nM |  |  |
| Cc1nc2c(c(-c3ccn[nH]3)n1)C[C@@H](C)N(C(=O)c1cccc(C(F)(F)F)c1F)C2 (single isomer, unassigned) [Example 75, (R*)-(2,6-dimethyl-4-(1H-pyrazol-5-yl)-5,6-dihydropyrido[3,4-d]pyrimidin-7(8H)-yl)(2-fluoro-3-(trifluoromethyl)phenyl)methanone] | 12.7 nM | 7.7 nM |  |
| Cc1nc2c(c(-c3ccn[nH]3)n1)C[C@H](C)N(C(=O)c1ccc(F)c(C(F)(F)F)c1Cl)C2 (single isomer, unassigned) [Example 65, (S*)-(2-chloro-4-fluoro-3-(trifluoromethyl)phenyl)(2,6-dimethyl-4-(1H-pyrazol-5-yl)-5,6-dihydropyrido[3,4-d]pyrimidin-7(8H)-yl)methanone] | 2820 nM | 1220 nM |  |
| Cc1nc2c(c(-c3ccccc3)n1)CCN(C(=O)c1cccc(C(F)(F)F)c1Cl)C2 [Example 32, 7-{[2-Chloro-3-(trifluoromethyl)phenyl]carbonyl}-2-methyl-4-phenyl-5,6,7,8-tetrahydropyrido[3,4-d]pyrimidine] |  | 4050 nM |  |
| Cc1nc2c(c(-c3ccn[nH]3)n1)CC(C)N(C(=O)c1cccc(C(F)(F)F)c1C)C2 (stereo not drawn) [Example 77, (2,6-dimethyl-4-(1H-pyrazol-5-yl)-5,6-dihydropyrido[3,4-d]pyrimidin-7(8H)-yl)(2-methyl-3-(trifluoromethyl)phenyl)methanone] |  | 20 nM |  |

More lines, main results first:

| IC50 (P2X7 [2]) | IC50 (rat P2X7) | SMILES | other results |
| --- | --- | --- | --- |
| 12.9 nM |  | CC1c2ncnc(-c3ccn[nH]3)c2CCN1C(=O)c1cccc(C(F)(F)F)c1Cl (stereo not drawn) [Example 112, (2-chloro-3-(trifluoromethyl)phenyl)(8-methyl-4-(1H-pyrazol-5-yl)-5,6-dihydropyrido[3,4-d]pyrimidin-7(8H)-yl)methanone] | Ki (P2X7 [1]; [3]): 25.1 nM |
|  | 8770 nM | Cc1nc2c(c(-c3ccn[nH]3)n1)C[C@@H](C)N(C(=O)c1ccc(Cl)cc1F)C2 (single isomer, unassigned) [Example 88, (R*)-(4-chloro-2-fluorophenyl)(2,6-dimethyl-4-(1H-pyrazol-5-yl)-5,6-dihydropyrido[3,4-d]pyrimidin-7(8H)-yl)methanone] |  |
|  | 1000 nM | C[C@H]1c2ncnc(-c3ccn[nH]3)c2CCN1C(=O)c1ccc(Cl)c(F)c1Cl (single isomer, unassigned) [Example 123, (S*)-(2,4-dichloro-3-fluorophenyl)(8-methyl-4-(1H-pyrazol-5-yl)-5,6-dihydropyrido[3,4-d]pyrimidin-7(8H)-yl)methanone] | Ki (P2X7 [1]): 501 nM |
|  | 15.2 nM | Cc1nc2c(c(-c3ccn[nH]3)n1)CC(C)N(C(=O)c1ccc(Cl)cc1F)C2 (stereo not drawn) [Example 87, (4-chloro-2-fluorophenyl)(2,6-dimethyl-4-(1H-pyrazol-5-yl)-5,6-dihydropyrido[3,4-d]pyrimidin-7(8H)-yl)methanone] |  |
| 19.1 nM |  | CCc1nc2c(c(-c3ccn[nH]3)n1)CC(C)N(C(=O)c1ccc(Cl)c(F)c1Cl)C2 (stereo not drawn) [Example 104, (2,4-dichloro-3-fluorophenyl)(2-ethyl-6-methyl-4-(1H-pyrazol-5-yl)-5,6-dihydropyrido[3,4-d]pyrimidin-7(8H)-yl)methanone] | Ki (P2X7 [1]; [3]): 39.8 nM |
| 1590 nM |  | Cc1nc2c(c(-c3ccn[nH]3)n1)C[C@H](C)N(C(=O)c1ccc(F)cc1Cl)C2 (single isomer, unassigned) [Example 92, (S*)-(2-chloro-4-fluorophenyl)(2,6-dimethyl-4-(1H-pyrazol-5-yl)-5,6-dihydropyrido[3,4-d]pyrimidin-7(8H)-yl)methanone] |  |
|  | 12.4 nM | Cc1nc2c(c(-c3ccn[nH]3)n1)CC(C)N(C(=O)c1ccc(Cl)c(F)c1Cl)C2 (stereo not drawn) [Example 70, (2,4-dichloro-3-fluorophenyl)(2,6-dimethyl-4-(1H-pyrazol-5-yl)-5,6-dihydropyrido[3,4-d]pyrimidin-7(8H)-yl)methanone] |  |
| 968 nM | 1230 nM | C[C@H]1c2ncnc(-c3ccn[nH]3)c2CCN1C(=O)c1ccc(F)c(C(F)(F)F)c1Cl (single isomer, unassigned) [Example 117, (S*)-(2-chloro-4-fluoro-3-(trifluoromethyl)phenyl)(8-methyl-4-(1H-pyrazol-5-yl)-5,6-dihydropyrido[3,4-d]pyrimidin-7(8H)-yl)methanone] |  |
|  | 128 nM | C[C@@H]1c2ncnc(-c3ccn[nH]3)c2CCN1C(=O)c1ccc(Cl)c(F)c1Cl (single isomer, unassigned) [Example 122, (R*)-(2,4-dichloro-3-fluorophenyl)(8-methyl-4-(1H-pyrazol-5-yl)-5,6-dihydropyrido[3,4-d]pyrimidin-7(8H)-yl)methanone] | Ki (P2X7 [1]): 20 nM |
| 244 nM |  | Cc1cccc(C(=O)N2CCc3c(ncnc3-c3ccn[nH]3)C2)c1Cl [Example 8, 7-[(2-Chloro-3-methylphenyl)carbonyl]-4-(1H-pyrazol-5-yl)-5,6,7,8-tetrahydropyrido[3,4-d]pyrimidine] |  |
|  | 3210 nM | O=C(c1ccc(F)cc1Cl)N1CCc2c(ncnc2-c2ccn[nH]2)C1 [Example 21] |  |
